{"sequences": {"note": "The chains behind the UniProt entries cited, without tags or fusion partners. Residues count along the entry.", "UniProt P24530, 27-442": "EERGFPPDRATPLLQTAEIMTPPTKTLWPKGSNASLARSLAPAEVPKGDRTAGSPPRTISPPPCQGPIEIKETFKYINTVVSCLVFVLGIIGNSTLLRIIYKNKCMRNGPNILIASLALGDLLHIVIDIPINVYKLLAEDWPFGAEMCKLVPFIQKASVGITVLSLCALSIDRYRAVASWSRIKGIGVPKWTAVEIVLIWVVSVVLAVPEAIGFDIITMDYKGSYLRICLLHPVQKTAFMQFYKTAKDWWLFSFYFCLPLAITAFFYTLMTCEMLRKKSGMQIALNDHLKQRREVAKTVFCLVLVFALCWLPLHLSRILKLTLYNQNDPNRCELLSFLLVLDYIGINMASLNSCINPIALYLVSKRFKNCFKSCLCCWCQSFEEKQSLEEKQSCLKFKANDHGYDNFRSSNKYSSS"}, "source": "patent US10022421B2", "about": "“Treatment of primary and metastatic carcinoma” (Spectrum Pharmaceuticals Inc., priority 2012, dated 2018)", "origin": "cited, not measured here", "target": "ETB receptors (Homo sapiens, UniProt P24530)", "conditions": "ETB vs ETA; cited from earlier work", "data": [{"substance": "N-Succunyl-[Glu^9, Ala^11,15] Endothelin-1 (8-21) (DEEAVYFAHLDIIW; N-terminal succinyl; ETB receptor agonist IRL-1620; MOD_RES (1)..(1) Succinylated)", "values": [{"measurement": "selectivity of binding to ETB receptors over endothelin A receptors", "result": "120,000 times"}]}]}
